# From article PMC10899660, “Global fungal-host interactome mapping identifies host targets of candidalysin” (Nature Communications, 2024)
# “Also recorded” adds a separate entry of the source. Where two headings read alike, the source gives them in different places.
# Columns and labels:
# [1] = system: human ORFeome (n = 13,761); experiment: High-throughput enhanced yeast two-hybrid (HT-eY2H) screening of the human ORFeome; assay type: binding
# Description: The screening of potential host gene targets was carried out using our previous protocol with appropriate modification. Briefly, this system is based on the reconstitution of a functional transcription factor for activation of HIS3 reporter in a cycloheximide (CHX)-sensitive manner through the interaction between two proteins: one fused to the DNA-binding domain (DB-X) and the other fused to the activation domain (AD-Y). The entry clone encoding candidalysin or other Ece1 peptides was generated by Gateway cloning and confirmed by variant identity through barcoding and Sanger sequencing. The entry clones were transferred by Gateway LR reactions into the HT-eY2H vector pDEST-AD expressing the yeast Gal4 activation domain fusion proteins (AD-Y). The AD-Y plasmids were then transformed into the haploid yeast Y8930 (MATα), with the genotype leu2–3,112 trp1–901 his3Δ200 ura3–52 gal4Δ gal80Δ GAL2::ADE2 GAL1::HIS3@LYS2 GAL7::lacZ@MET2cyh2^R, and selected on synthetic complete (SC) agar medium without leucine (SC-Leu) to generate Y2H bait strains. The prey strains expressing DB-X were transformed into the yeast Y8800, mating type MATα, with similar genotype as Y8930, and selected on SC medium without tryptophan (SC-Trp). The cells were then mated and spotted onto confirmative, selective and control agar plates including SC-Leu-Trp, SC-Leu-Trp-His and SC-Leu-His+CHX, respectively. PPIs were considered positive for activation of GAL1::HIS3 (i.e., growth to overcome 3AT inhibition) in a CHX-sensitive manner.
# [2] = system: mouse tongue tissue; experiment: Histopathology (H&E, PAS) and immunohistochemistry (H-Score of CCNH and γ-H2AX) of tongue tissue; assay type: in vivo, BALB/c mice; conditions: 70 μM candidalysin swab 75 min, Day 5
# Description: After anesthetization (Day 1), mice were infected with WT, ece1Δ/Δ, ece1Δ/Δ+ECE1 and ece1Δ/Δ+ECE1^Δ184-279 C. albicans, or treated with 70 μM of candidalysin or PBS (Ctrl). After 5 days (Day 5), mice were euthanized. The tongue was excised and divided into two halves longitudinally for fungal load quantification and immunohistochemistry assay. Food-burial seeking tests were performed on the Day 0 and Day 5. b The colony forming units (CFUs) per gram of tongue tissue from mice colonized with WT, ece1Δ/Δ, ece1Δ/Δ+ECE1, and ece1Δ/Δ+ECE1^Δ184-279 strains of C. albicans, and mice challenged with candidalysin or treated with PBS (Ctrl) (n = 6 mice). Data was shown as median with interquartile range. The P value was determined by one-way ANOVA with Tukey’s post-hoc tests. […] The P value was determined by one-way ANOVA with Tukey’s post-hoc tests. *P = 0.0243; ****P < 0.0001. d Histopathology and immunohistochemistry assay of tongue tissues. Pathology and fungal infection in tongue tissues were assessed by H&E and PAS staining, respectively. The expression of CCNH and γ-H2AX was assessed in situ by immunohistochemistry assay (IHC). […] Images are from the same tissues. e Quantification of CCNH and γ-H2AX expression in immunohistochemistry assay (n = 6 mice). […]
# [3] = system: FaDu cells; experiment: Micronucleus test (MNT), FaDu cells; assay type: cell-based; conditions: 10 μM candidalysin, 4 h
# Description: About 3 × 10^5 FaDu cells were seeded into six-well culture plate for 24 h and exposed to either 10 μM candidalysin or 10 μM cisplatinum (micronuclei inductor) or their binary mixtures for 4 h. Cells were washed with fresh PBS and resuspended with fresh MEM medium with 10% FBS and 1% PS. The cells were further cultured for an extra 75 h. After washing with PBS, the treated cells were collected in 15 ml tube and fixed in methanol and acetic acid (3:1, v/v) overnight. The cultures were dropped onto glass slides, which were then stained with Giemsa solution for 5 min, washed with distilled water and dried at room temperature. For each treatment, 2000 cells were counted under ×400 magnification using a light microscope. The micronuclei frequency (MF) was thus calculated by (MN/2000) ×100.
# [4] = system: BALB/c mice; experiment: Micronucleus PCE test (MN PCE‰) in mice; assay type: in vivo; conditions: for MN PCE‰ / genotoxic damage compared to WT strain infection: single candidalysin dose vs fungal colonization
# Description: On the day before infection (Day 0), mice (n = 6) were sedated by intraperitoneal injection of 75 mg/kg sodium pentobarbital. After anesthetized, for C. albicans infected group, a sterile cotton swab soaked in 10^7 CFU/mL of C. albicans culture in PBS was placed on the tongue for 75 min, and for candidalysin treated group, a sterile cotton swab soaked in 70 μM candidalysin solution was placed on the tongue for 75 minutes. For the control group (n = 6), a swab soaked in PBS was used. After Day 5, mice were euthanized, the tongue was excised and collected for CFU counting, histopathology and immunohistochemistry analysis. The results of immunohistochemistry were quantified by histochemistry scores.
# Bone marrow cells were removed from the femurs and tibias of BALB/c mice and processed with FBS. Prior to be enumerated under the microscope, the cells were air-dried naturally, fixed with methanol and stained with Giemsa solution (Sigma, 1.09203). Counts of at least 4,000 polychromatic erythrocytes (PCE) per piece were required to calculate the micronucleus PCE rate.
smiles,measurement,setting,value
CC[C@H](C)[C@H](NC(=O)CNC(=O)[C@H](CCSC)NC(=O)[C@@H](NC(=O)[C@@H](NC(=O)CNC(=O)[C@@H](NC(=O)[C@@H](NC(=O)[C@@H](N)CO)[C@@H](C)CC)[C@@H](C)CC)[C@@H](C)CC)[C@@H](C)CC)C(=O)N[C@@H](CC(C)C)C(=O)NCC(=O)N[C@@H](CC(N)=O)C(=O)N[C@H](C(=O)N1CCC[C@H]1C(=O)N[C@@H](CCC(N)=O)C(=O)N[C@H](C(=O)N[C@H](C(=O)N[C@@H](CCC(N)=O)C(=O)N[C@H](C(=O)N[C@H](C(=O)N[C@@H](CCSC)C(=O)N[C@@H](CO)C(=O)N[C@H](C(=O)N[C@H](C(=O)N[C@@H](CCCCN)C(=O)N[C@@H](C)C(=O)N[C@@H](Cc1ccccc1)C(=O)N[C@@H](CCCCN)C(=O)NCC(=O)N[C@@H](CC(N)=O)C(=O)N[C@@H](CCCCN)C(=O)O)C(C)C)[C@@H](C)CC)[C@@H](C)CC)[C@@H](C)CC)[C@@H](C)CC)C(C)C)[C@@H](C)CC [Ece1-III],human genes/proteins interacting with the peptide,[1],"PPP2CA, OR7C2, and OR7A10; also recorded: CCNH, GLRX3, and UBXN2B"
same,number of specific host interactors after removing the overlapped host interactors,[1],8
same,number of potential host interactors,"[1]; human ORFeome n = 13,761",50
same,human genes/proteins interacting with the peptide,[1]; listed as candidalysin,"IST1, CBWD6, and CBWD2; also recorded: ACD, PPP2CA, UBXN2B, CCNH, CDX1, RB1, SFI1, SPRED2, THPO, SPAG8, NEK6, IST1"
same,CCNH and γ-H2AX expression in tongue tissue (IHC),[2],increased expression of CCNH and γ-H2AX
same,micronucleus formation,[3],higher incidence of micronucleus formation
same,MN PCE (‰),[4]; compared to the control / sham infected group,significant increase
same,MN PCE (‰),"[4]; mice, Fig. 5c source data, replicate 1",17.4651 ‰
same,MN PCE / (PCE + NCE),"[4]; mice, Fig. 5c source data, replicate 1 (counts)",70/4008
same,MN PCE (‰),"[4]; mice, Fig. 5c source data, replicate 2",31.984 ‰
same,MN PCE / (PCE + NCE),"[4]; mice, Fig. 5c source data, replicate 2 (counts)",128/4002
same,MN PCE (‰),"[4]; mice, Fig. 5c source data, replicate 3",29.4985 ‰
same,MN PCE / (PCE + NCE),"[4]; mice, Fig. 5c source data, replicate 3 (counts)",120/4068
same,MN PCE (‰),"[4]; mice, Fig. 5c source data, replicate 4",13.3796 ‰
same,MN PCE / (PCE + NCE),"[4]; mice, Fig. 5c source data, replicate 4 (counts)",54/4036
same,MN PCE (‰),"[4]; mice, Fig. 5c source data, replicate 5",27.114 ‰
same,MN PCE / (PCE + NCE),"[4]; mice, Fig. 5c source data, replicate 5 (counts)",118/4352
same,MN PCE (‰),"[4]; mice, Fig. 5c source data, replicate 6",23.5525 ‰
same,MN PCE / (PCE + NCE),"[4]; mice, Fig. 5c source data, replicate 6 (counts)",96/4076
same,MN PCE‰ / genotoxic damage compared to WT strain infection,[4],genotoxic damage to the same extent as fungal colonization
same,MN PCE‰ / genotoxic damage compared to WT strain infection,[4]; listed as Clys,no statistically significant difference
